Ki data for one molecule are collected here from BindingDB's records for doi:10.1038/sj.bjp.0703341 (Friedrich-Schiller-University Jena, 2000).

The chains behind the UniProt entries cited, without tags or fusion partners.
UniProt P31388, whole entry: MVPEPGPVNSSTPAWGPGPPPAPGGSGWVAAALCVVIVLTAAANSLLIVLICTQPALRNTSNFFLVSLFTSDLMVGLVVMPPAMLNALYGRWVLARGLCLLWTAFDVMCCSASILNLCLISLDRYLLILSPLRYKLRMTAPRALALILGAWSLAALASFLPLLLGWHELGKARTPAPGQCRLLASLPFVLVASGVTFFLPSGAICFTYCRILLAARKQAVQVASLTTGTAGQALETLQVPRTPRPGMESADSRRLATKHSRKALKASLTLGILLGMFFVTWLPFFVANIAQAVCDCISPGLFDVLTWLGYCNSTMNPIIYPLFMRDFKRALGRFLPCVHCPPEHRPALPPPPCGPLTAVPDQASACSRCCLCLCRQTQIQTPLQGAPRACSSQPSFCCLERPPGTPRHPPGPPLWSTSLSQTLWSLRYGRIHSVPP

A word on the Ki: it is a measure of affinity in units of concentration, obtained from inhibition or displacement.

Each structure is given as a SMILES string.

In the assay the target is 5-hydroxytryptamine receptor 6 (Rattus norvegicus, UniProt P31388).

On to `CSc1ccc2c(c1)C(N1CCN(C)CC1)Cc1ccccc1S2` (stereo unspecified) [methanesulfonic acid;1-methyl-4-(3-methylsulfanyl-5,6-dihydrobenzo[b][1]benzothiepin-5-yl)piperazine], for which the affinity corresponds to a Ki of 2 nM.
